Results taken from patent publication US8507439B2, “Neuroprotective and neurorestorative method and compositions” (priority 2005, dated 2013).

Columns and labels:
[1] = test system: N27 dopaminergic cells; assay: Survival of N27 dopaminergic cells in the presence of 300 μM MPP+ neurotoxic agent; type: cell-based, rat; conditions: 39 μM peptide + 300 μM MPP+
[2] = test system: SH-SY5Y human neuroblastoma cells; assay: Protection of SH-SY5Y neuroblastoma cells from Yankner peptide (b/A4), LDH content of remaining cells; type: cell-based; conditions: 0.4 μM peptide + 20 μM Yankner peptide
Text: A characteristic constituent of Alzheimer's Disease (AD) is the formation of plaques from the 39-43 amino acid long peptide derived from amyloid protein (Selkoe, D. TINS (1993) 16: 403-409). This molecule (b/A4) can be toxic to mammalian nerve cells. […] Yankner et al. (Science (1990) 250: 279-282) has developed this property in a culture method as an AD assay procedure. We have adapted this to test the efficacy of SEQ ID NO: 2 as a neuroprotective and/or neurorestorative peptide in the AD culture model.
In conjunction with Prof David Adams (WPI. Worcester, Mass.), the following two methods have been used to test the efficacy of SEQ ID NO: 2 in protecting SH-SY5Y human neuroblastoma cells from the toxic effects if b/A4.
Differentiated cultures of SH-SY5Y Human neuroblastoma cells were grown to a stage where the cells formed a network of neurites. The cultures consisting of an untreated control, and two experimental groups (1) treated with b/A4 and (2) with b/A4+ SEQ ID NO: 2. At day 3, after removal of the supernatant and the debris from dead cells by 3 washes with saline, the cells were then lysed and their LDH content was assayed for cell survival by measuring the LDH present in the remaining cells. The results were compared to LDH present in untreated controls, that were incubated for 3 days with no peptide additives (Table 7). The assay assumes that the LDH content of healthy cells remains constant and can be used as an index of living cells. The experiments using anoxia in our previous work were in agreement with this assumption.
This experiment was performed in the method described above for Example 6, Experiment 1, except that the cells were incubated for 4 days instead of 3 to enhance the degenerative effect of the Yankner peptide. At the end of the experiment the cultures were washed in saline containing 0.01% triton X-100 to remove all released LDH and cellular debris before lysis and analysis for LDH content of the surviving cells (Table 8).

[3] = test system: SHSY cells; assay: LDH levels in residual surviving SHSY cells after Yankner peptide; type: cell-based, human
Method: In a tissue culture model for Alzheimer's disease, treatment with the Yankner peptide (amyloid fragment) causes cell death within 3 days. […] By studying the time course of cell death in this culture model for Alzheimer's disease, it was determined that about 60% of the cells die within 24 hrs. When the neuroprotective/neurorestorative peptide of the invention was added to the cells at the 24 hour time point (e.g., 24 hours after the cells were contacted with the Yankner peptide), over 40% of the injured neurons that were destined to die on day 3 were rescued.
Aliquots of 3×10^5 SHSY cells were plated in each well of a 24-well microtiter plate in 1 ml of medium containing no peptides (control=Ctrl), 20 μM Yankner peptide (Yankner), 20 μM Yankner peptide+75 μM DQ peptide (SEQ ID NO:2) added at time of plating (Yankner+BTX Simultaneous), or 20 μM Yankner+75 μM BTX-639 added 24 hr post plating (Yankner+BTX 24 Hr Post). Plates were incubated at 37° C. in a 5% CO2 incubator for 3 days, then each well was washed twice with 1×PBS to remove loosely bound cells. Whole cell lysates were prepared from the remaining attached (viable) cells, and Lactate dehydrogenase (LDH) activity measured as described in methods. The results are illustrated in FIG. 2, in which each histobar represents the mean of 11 independent trials. Error bars denote one standard deviation. […]

[4] = test system: Caspase-3; assay: Caspase-3 immunoblot of SHSY whole cell lysates; type: cell-based, human; conditions: 20 μM Yankner + BTX-639
Method: Aliquots of 2×10^6 SHSY cells were plated into each of 7 T-25 cell culture flasks with 5 ml of medium containing 2 mM Staurosporine (a known neuronal apoptosis stimulator). Results are shown in FIG. 3 with (Marker lane M), 20 μM Yankner peptide (middle lanes), and 20 μM Yankner+BTX-639 (right lane). Flasks were incubated at 37° C. in a 5% CO2 incubator for 0, 12, 24, 48, or 72 hours (as indicated in FIG. 3), then whole cell lysates were prepared as described in Methods. Caspase-3 immuoblots were performed on 20 μg of total cellular protein per lane. Numbers to the left of the figure denote the sizes in kDa of the marker protein (Biorad Broad Scope). The position of Caspase-3 at the expected size of 32 kDa is denoted on the right of the figure. BTX-639 is the peptide DQ (SEQ ID NO:2).

Row | Substance | % Rescue per Treatment time 0 hours [1] [%] | % Rescue per Treatment time 24 hours [1] [%] | % Survival ([2]; 3 days) [%] | OD 490 nm ([2]; 3 days) [OD 490 nm] | % Survival ([2]; 4 days) [%] | OD 490 nm ([2]; 4 days) [OD 490 nm] | injured neurons destined to die on day 3 that were rescued ([3]; peptide added 24 hours after the cells were contacted with the Yankner peptide) | rescue from cell death (in words) ([3]; peptide added together with the amyloid fragment) | effect on cellular level of Caspase-3 (in words) [4]
1 | EV | 100 ± 2 | 30 ± 7 | – | – | – | – | – | – | –
2 | SEQ ID NO: 2 (DQ) | – | – | 100 | 0.935 | 64.1 | 0.287 | over 40% | rescued the cells from cell death | reduced the effect of the Yankner peptide on the level of Caspase-3
